Experimental findings from ChEMBL document CHEMBL3875209, “Synthesis and biological evaluation of cis-restricted triazole/tetrazole mimics of combretastatin-benzothiazole hybrids as tubulin polymerization inhibitors and apoptosis inducers” (Bioorg Med Chem, 2017) are described below.

This assay in a line: Cell cycle arrest in human A549 cells assessed as accumulation at G0/G1 phase at 50 nM after 48 hrs by propidium iodide staining based flow cytometry (reference value: 78.5%). Format: functional. In outline:
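A549 cells exposed for 48 h at 50 or 100 nM. Cells harvested, washed in PBS, fixed in ice-cold 70% ethanol and stained with propidium iodide. Phase distribution (G0/G1, S, G2/M) measured by flow cytometry against untreated cells.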
(Flow cytometry measures light scatter and fluorescence of single cells or particles in a stream.)

`COc1ccc(/C=C\c2cc(OC)c(OC)c(OC)c2)cc1O` [COMBRETASTATIN A4]: the Activity came to 56.1%.
